From the OPERA property sets (Mansouri et al. 2018)

| SMILES | logP | other results |
| --- | --- | --- |
| O=[N+]([O-])OCC(CO)O[N+](=O)[O-] (stereo not given) | 0.83 | – |
| N#Cc1cc2ccccc2nc1Nc1c([N+](=O)[O-])cc([N+](=O)[O-])cc1C(F)(F)F | 3.88 | – |
| O=[N+]([O-])c1cnc(Nc2c(Cl)cc([N+](=O)[O-])cc2[N+](=O)[O-])c(Cl)c1 | 2.6 | – |
| O=[N+]([O-])OCC(O)CO[N+](=O)[O-] | 0.71 | – |
| C1CSCCS1 | 0.77 | solubility: 25 mM (≈ 3000 µg/mL) |
| Cc1c([N+](=O)[O-])cc([N+](=O)[O-])cc1[N+](=O)[O-] | – | solubility: 0.572 mM (≈ 130 µg/mL) |
| CCCCOP(C)(=O)OCCCC | 3.26 | – |
| O=[N+]([O-])c1cc(Cl)c(Nc2ncc(C(F)(F)F)cc2Cl)c([N+](=O)[O-])c1 | 3.74 | – |
| CC(C)OP(=O)(F)OC(C)C | 1.17 | – |
| O=[N+]([O-])c1cccc([N+](=O)[O-])c1 | – | solubility: 3.17 mM (≈ 533 µg/mL) |
| CC1(C)CC(NC(=O)NP(=O)(N2CC2)N2CC2)CC(C)(C)N1 | -0.8 | – |
| O=[N+]([O-])c1cnc(Nc2c([N+](=O)[O-])cc([N+](=O)[O-])cc2C(F)(F)F)c(Cl)c1 | 2.8 | – |
| CCCCCOP(C)(=O)OCCCCC | 3.74 | – |
| CC1(C)CC(NC(=O)NP(=O)(N2CC2(C)C)N2CC2(C)C)CC(C)(C)N1 (stereo not given) | 0.55 | – |
| Cc1ccc([N+](=O)[O-])cc1[N+](=O)[O-] | – | solubility: 1.48 mM (≈ 270 µg/mL) |
| CC(C)OP(C)(=O)OC(C)C | 1.03 | solubility: 888 mM (≈ 160000 µg/mL) |
| CP(=O)(O)O | – | solubility: 208 mM (≈ 20000 µg/mL) |
| COP(C)(=O)OC | -0.61 | – |
| O=[N+]([O-])OCCOCCO[N+](=O)[O-] | 0.98 | solubility: 19.9 mM (≈ 3900 µg/mL) |
| O=[N+]([O-])N1CN([N+](=O)[O-])CN([N+](=O)[O-])CN([N+](=O)[O-])C1 | 0.16 | – |
| Cc1c([N+](=O)[O-])cccc1[N+](=O)[O-] | – | solubility: 0.999 mM (≈ 182 µg/mL) |

| SMILES | logP | other results |
| --- | --- | --- |
| COP(=O)(OC)N(C)C | – | log10 OH rate constant (cm³/molecule/s): -10.5 |
| CCCO[N+](=O)[O-] | – | solubility: 31.3 mM (≈ 3290 µg/mL) |
| O=C(NC12CC3CC(CC(C3)C1)C2)NP(=O)(N1CC1)N1CC1 | 1.81 | – |
| O=[N+]([O-])c1ccc([N+](=O)[O-])c(O)c1 | – | solubility: 2.09 mM (≈ 385 µg/mL) |
| CC(C)O[N+](=O)[O-] | – | solubility: 34.7 mM (≈ 3650 µg/mL) |
| CN(C)P(C)(=O)N(C)C | -0.67 | – |
| CC1(C)CC(NC(=O)NP(=O)(N2CC2)N2CC2)C(C)(C)N1O (stereo not given) | -0.6 | – |
| Cc1c(O)ccc([N+](=O)[O-])c1[N+](=O)[O-] | 2.86 | – |
| CC(C)N(CCO)C(C)C | – | solubility: 82.6 mM (≈ 12000 µg/mL) |
| O=[N+]([O-])c1cc([N+](=O)[O-])c(Nc2ncc(Cl)cc2Cl)c(C(F)(F)F)c1 | 3.47 | – |
| CCCCCCCCOP(C)(=O)OCCCCCCCC | 6.13 | – |
| Cc1ncc([N+](=O)[O-])n1CCO[N+](=O)[O-] | 0.81 | – |
| O=C1c2cc([N+](=O)[O-])cc([N+](=O)[O-])c2-c2c1cc([N+](=O)[O-])cc2[N+](=O)[O-] | – | logP (experimental values compiled from the literature): 2.4 |
| CCO[N+](=O)[O-] | – | log10 OH rate constant (cm³/molecule/s): -12.7 |
| CCOP(C)(=S)OCC | 2.08 | – |
| CCCOP(C)(=S)OCCC | 3.26 | – |
| Cc1nc(Nc2c([N+](=O)[O-])cc([N+](=O)[O-])cc2C(F)(F)F)c(C#N)cc1C#N | 2.8 | – |
| CCOP(=O)(CC)OCC | 0.66 | – |
| CC1(C)CC(NC(=O)NP(=O)(N2CC2(C)C)N2CC2(C)C)CC(C)(C)N1O (stereo not given) | 0.48 | – |
| CC1(C)CC(NC(=O)NP(=O)(N2CC2(C)C)N2CC2(C)C)C(C)(C)N1O (stereo not given) | 0.51 | – |
| CC1(C)CN1P(=O)(NC(=O)NC12CC3CC(CC(C3)C1)C2)N1CC1(C)C (stereo not given) | 1.98 | – |

Converted amounts (≈) assume the structure as drawn.
